# Test results from article PMC3998711 (Nature chemical biology, 2014).
# Target: first bromodomain of BRD4, BRD4(1) (Homo sapiens, UniProt O60885)
# Experiment: AlphaScreen assay
# Format: binding
# Conditions: described in words
compound,measurement,value
Cc1cnc(Nc2ccc(OCCN3CCCC3)cc2)nc1Nc1cccc(S(=O)(=O)NC(C)(C)C)c1 [TG-101348],AlphaScreen dose response IC50,nanomolar
